Laboratory results reported in PubChem BioAssay AID485344 (National Center for Advancing Translational Sciences (NCATS), 2010).
This is a selection; strong and weak results do not stand in their true shares. Some results for these compounds are left out of this collection, so the calls shown say nothing about other tests. Activity calls are given as the source filed them. Rule as the data show it: active = inhibition above about 30%; inactive = below that, where a call was filed.

Amino acid sequences for entries named in this document (tags omitted).
UniProt P14416, whole entry: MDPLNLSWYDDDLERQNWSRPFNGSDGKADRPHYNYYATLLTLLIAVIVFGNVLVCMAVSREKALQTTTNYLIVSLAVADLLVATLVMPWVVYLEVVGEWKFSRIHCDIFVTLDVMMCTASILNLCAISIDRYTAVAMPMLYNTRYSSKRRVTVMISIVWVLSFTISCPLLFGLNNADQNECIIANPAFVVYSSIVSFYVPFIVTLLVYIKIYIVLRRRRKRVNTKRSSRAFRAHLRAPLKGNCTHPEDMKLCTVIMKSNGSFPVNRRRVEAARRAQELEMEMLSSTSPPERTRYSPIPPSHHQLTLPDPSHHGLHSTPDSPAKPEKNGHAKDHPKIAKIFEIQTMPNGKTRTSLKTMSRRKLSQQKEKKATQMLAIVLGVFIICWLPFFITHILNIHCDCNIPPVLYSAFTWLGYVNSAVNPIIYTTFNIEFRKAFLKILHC

target: D(2) dopamine receptor (Homo sapiens) (UniProt P14416); experiment: HTS Assay for Allosteric Antagonists of the Human D2 Dopamine Receptor: Primary Screen for Antagonists; conditions: HEK293 TREx D2 cells, calcium flux, dopamine EC80; at 10 µM; stronger effect = higher value; also: 0% is about no effect
Description: NIH Chemical Genomics Center [NCGC] NIH Molecular Libraries Probe Centers Network [MLPCN] MLPCN Grant: NS064831-01 Assay Submitter (PI): David Sibley Dopamine receptors (DARs) are involved in the etiology and/or therapy of a number of neuropsychiatric and endocrine disorders. For instance, all receptor-based antiparkinsonian drugs work via stimulating the D2 DAR subtype whereas all FDA-approved antipsychotic agents are antagonists of this receptor. […] There are three different types of allosteric modulators that we are seeking, two of which will stimulate or augment receptor signaling, allosteric agonists and potentiators, while the third, allosteric antagonists, will attenuate receptor signaling. The present primary screening assay measures compound antagonism after an EC80 addition of dopamine by tracking calcium flux in a […], inducible Hek293 Trex D2 cell line.
Freshly passaged cells are plated in 1536 well black, clear bottom plates at a density of 4000 cells/well in 3 ul of complete media containing 1x tetracycline inducer. After an overnight incubation at 30 C in 5% CO2, cells are loaded with 2 ul of the no wash Calcium Assay Kit (ABD Bioquest) and incubated at room temperature for 30 to 90 minutes. Agonist read: A 10 cycle (1 second/cycle) baseline measurement is taken and then the FDSS online 1536 pintool delivers 23 nl of compound library (as well as dopamine controls) to the plate. The plate is measured for kinetically at 1 cycle/sec for 180 seconds. Following the 180 second read, 1 ul of an EC80 (negative modulation assay) is delivered by an onboard pipette head. Measurements are taken kinetically for an additional 180 seconds.

| SMILES | inhibition |
| --- | --- |
| O=C(OC1CN2CCC1CC2)C(CO)(c1ccccc1)c1ccccc1 (stereo unspecified) | inactive: 11.9% |
| CN(C)c1cccc(C(=O)NCC2(N(C)C)CCCCC2)c1 | inactive: -7.33% |
| COc1ccc(Br)c(C(=O)NCC2(N3CCCCC3)CCCCC2)c1 | inactive: 19.5% |
| COc1cc(C(=O)NCC2(N(C)C)CCCCC2)c([N+](=O)[O-])cc1OC | inactive: 2.1% |
| CN(C)C1(CNC(=O)c2ccc(Br)cc2)CCCCC1 | inactive: 0.845% |
| O=C(NCC1(N2CCCCC2)CCCCC1)c1cccc(Cl)c1 | inactive: 10.6% |
| COc1ccc(Cl)cc1C(=O)NCC1(N(C)C)CCCCC1 | inactive: -35.3% |
| COc1cccc(C(=O)NCC2(N3CCCCC3)CCCCC2)c1 | inactive: 9.07% |
| CN(C)C1CCCC1OC(=O)C(O)(c1ccccc1)c1ccccc1 (stereo unspecified) | inactive: -4.47% |
| CN(C)c1ccc(C(=O)NCC2(N(C)C)CCCCC2)cc1 | inactive: 0.0085% |
| Cc1ccccc1C(=O)NCC1(N2CCCCC2)CCCCC1 | inactive: -14.1% |
| Cc1cc(C(=O)NCC2(N3CCCCC3)CCCCC2)ccc1[N+](=O)[O-] | inactive: -2.99% |
| CCN1CCCC(OC(=O)C2(O)c3ccccc3C=Cc3ccccc32)C1 (stereo unspecified) | inactive: -4.98% |
| COc1ccc(C(=O)NCC2(N(C)C)CCCCC2)cc1 | inactive: 4.21% |
| O=C(NCC1(N2CCCCC2)CCCCC1)c1cc(F)c(F)cc1Cl | inactive: 2.24% |
| CN1[C@@H]2CC[C@H]1CC(OC(=O)C(O)(c1ccccc1)c1ccccc1)C2 (stereo partly specified) | inactive: 6.74% |
| O=C(NCC1(N2CCCCC2)CCCCC1)c1cc([N+](=O)[O-])ccc1Cl | inactive: -16.1% |
| Cc1ccc(C(=O)NCC2(N3CCCCC3)CCCCC2)cc1 | inactive: 5.46% |
| CC(C)N1C(=O)CC2(CCN(CCOC(=O)C(O)(c3ccccc3)c3ccccc3)CC2)C1=O | inactive: 7.35% |
| COc1cc(SC)ccc1C(=O)NCC1(N(C)C)CCCCC1 | inactive: 6.17% |
| CCN(CC)CC(C)C(C)OC(=O)C(O)(c1ccccc1)c1ccccc1 (stereo unspecified) | inactive: -13.2% |
